## scFv variants of Ab-14 (light chain) against a SARS-CoV-2 spike peptide

The measurements come from Li et al. 2023 (doi:10.1038/s41467-023-39022-2) through the FLAb antibody collection.

Target peptide (SARS-CoV-2 spike, HR2 region): PDVDLGDISGINAS

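The starting antibody came from a phage panning campaign against this peptide. The variants were designed computationally from a first round of random CDR variants and then made and measured. Group labels follow the data file (Ctrl: baseline library sampled from a position-specific scoring matrix, with some repeated check sequences; Rand: our label for a block that the file lists under HC and that is probably the random mutants of the ten best first-round binders; En: ensemble of fine-tuned language models; GP: Gaussian process model; HC: hill climbing; Gen: genetic algorithm; Gibbs: Gibbs sampling; a sequence that several methods proposed may carry one label only). Affinity was read by AlphaSeq, a pooled yeast mating assay with surface-displayed partners. Binding brings cells together so that they mate, and sequencing counts the barcode pairs among the diploids. Read counts were normalised to the haploid input and turned into Kd by a linear fit to BCL2-family pairs of known affinity, for each replicate. There are six technical replicates.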

The variants keep the heavy chain, the linker and the frameworks of Ab-14 (scFv order VH, the linker GGGGSGGGGSGGGGS, VL).
VH: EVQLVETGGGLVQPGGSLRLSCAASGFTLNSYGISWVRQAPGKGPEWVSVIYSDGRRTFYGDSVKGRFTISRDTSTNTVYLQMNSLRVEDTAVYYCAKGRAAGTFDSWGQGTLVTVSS
VL: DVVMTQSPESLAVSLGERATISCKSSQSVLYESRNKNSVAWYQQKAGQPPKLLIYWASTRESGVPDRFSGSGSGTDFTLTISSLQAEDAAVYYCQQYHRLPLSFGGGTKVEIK

The parent's light chain CDRs are KSSQSVLYESRNKNSVA, WASTRES, QQYHRLPLS; each variant's own CDRs replace them letter for letter. Values are log10 of the apparent Kd in nM; lower means stronger binding. Replicates are averaged; those with no signal do not enter the mean. Where no diploid with the target was found in any replicate, the entry reads "nd": below detection, most likely a poor binder, though not proof of it. Nonspecific signal, from three strains lacking the peptide, appeared in 4% of pairings of all light chain designs, centred on 2.64 (5% of these signals below 1.59); values are not corrected for it. Also given: how often the same scFv was detected with the empty control strains.

CDR-L1,CDR-L2,CDR-L3,group,"log10 Kd (nM), mean",detected,control signals
MISQLMNMGTFAINSVA,QASIRNE,QQYDRLPLI,En_Gen,0.44,6/6,1/18
KSSDSVQYESRNKNSVA,WADTRES,QQYHRLPLS,Ctrl,2.15,1/6,0/18
MIDMGEAPNGQQTSSIA,QGHLRAE,QQYYRLPLC,En_Gibbs,0.06,6/6,1/18
RIMYEQFGNTYSVNNVA,QAHVRAY,QMYNRLPLS,En_Gibbs,nd,0/6,0/18
MISQLFMYGTRNYNSIA,QAETREK,QQYDRLPLE,En_HC,0.93,6/6,0/18
KVEQSGLYESRNKNSVA,NASTRES,QQYHRLPLS,GP_Gen,0.14,6/6,2/18
KVQQSVWYESRNKNSVA,NASTRES,QQYHRLPLS,GP_Gen,0.15,6/6,1/18
KLSLGLGVQKQVEKNIA,NERLKIA,QQYDRLPLT,En_Gibbs,0.57,6/6,0/18
HMKDELGLGPQTYHSVA,HASILEP,QQYYRLPLM,En_Gibbs,0.65,6/6,2/18
MLSQMWALGQKVKNSVA,QASMRFN,QQYDRLPLI,En_Gen,2.40,5/6,0/18
KLSQSAPYEERCFNSVA,HASQRES,QQYHRLPLS,GP_Gibbs,1.28,6/6,0/18
HITYGMQVMGRHSKSIA,QAETREK,QQYDRLPLV,En_Gen,0.98,6/6,0/18
KSSQSWLYESRNKNNVA,GASSRES,QQYHRLPLS,GP_HC,0.81,6/6,0/18
MMSQVTGYGQRQRNNVA,QTSTRED,QQYDRLPLI,En_Gen,0.48,6/6,0/18
KLYQSMGYLSRNKASIA,DMSRREN,QQYHRLPLS,En_HC,0.36,6/6,2/18
KFQQWWLYESRMQNNVA,NASQRES,QQYHRLPLS,GP_Gibbs,-0.09,6/6,1/18
KGSQSWLYESRNKNSVA,EASTRES,QQYHRLPLS,Ctrl,-0.43,6/6,1/18
KSSQNVLGDSRNKNSVA,DASTRES,QQYHRLPLS,Ctrl,-0.27,6/6,1/18
KLSQSVPYESRNKNSVA,EASTRCS,QQYHRLPLS,GP_Gen,0.18,6/6,0/18
KFEQSYLYESRNKNSVA,NASTRES,QQYHRLPLS,GP_Gen,-0.22,6/6,1/18
NFPQEVMYESHFKNNVA,QTSTRED,QQYDHLPLS,En_HC,0.10,6/6,1/18
KLSQSVELQSRNKNAVA,SAQTRES,QQYHRLPLS,GP_Gibbs,0.08,6/6,1/18
KLGQSVAMTSRNKNNVA,DLNTRER,QQYHRLPLS,En_HC,-0.25,6/6,0/18
MISQLMNLGQFAINSVA,QASIRNA,QQYDRLPLM,En_Gen,1.74,2/6,0/18
KLSMITGHMSTQKNNVA,EMETREN,QQYNRLPLA,En_Gen,1.23,6/6,0/18
TISQMTSWMSNLKNNVA,EVSTREK,QQYDRLPLS,En_Gen,1.29,6/6,0/18
NFSQMVLTGWTLKNSVA,HASTREE,QQYHRLPLI,En_HC,0.95,6/6,2/18
KLSQSVLYESRQKNAVA,NASTRES,QQYHRLPLS,GP_Gen,-0.36,6/6,2/18
KSAYSELLESRNKNSVA,SASTREV,QQYHRLPLS,GP_Gibbs,0.34,6/6,0/18
MISQLMNSGQFAINSVA,QASIRNE,QQYDRLPLI,En_Gen,1.26,6/6,0/18
KLSFSWLYESRNKNNVA,EASTRES,QQYHRLPLS,GP_Gen,0.01,6/6,1/18
KVQQSGCMLSRNKNSVA,HASTRES,QQYHRLPLS,GP_Gibbs,0.61,6/6,3/18
KSSQSVLYEDRNKNSVA,WASTRES,QQYHILPLS,Ctrl,1.63,5/6,0/18
HINDMLFGDHKIAHSIA,NTGVTSR,QQYSRLPLI,En_Gibbs,0.93,6/6,0/18
MISDMGLHDSRLQNSVA,NNSTREA,QQYHRLPLS,En_HC,1.35,6/6,1/18
KSSQDVLYESRNKNSVA,WASTRES,QQYARLPLS,Ctrl,2.16,5/6,0/18
KLSQSHLYESRNKNSVA,GASTRLS,QQYHRLPLS,GP_Gen,-0.03,6/6,0/18
KIGMTLNQLMQKKNNVA,DLVEREN,QQYFRLPLS,En_Gen,0.14,6/6,1/18
KSSPSQYYEDREFNSVA,HASQRES,QQYHRLPLS,GP_Gibbs,nd,0/6,0/18
KVSWSYLYESDNKQSVA,MVNTRES,QQYHRLPLS,Ctrl,1.96,6/6,0/18
ALSQSMDMTSRNKNSVA,DLSLREN,QQYHRLPLS,En_HC,0.50,6/6,1/18
KLPQSVLYESRNKNSVA,QASTRES,QQYHRLPLS,GP_Gen,-0.31,6/6,2/18
KISQSYLYESRNKNSVA,NGSTRES,QQYHRLPLS,GP_Gen,0.19,6/6,2/18
KLQQSWLYESRNKNSVA,EASTRES,QQYHRLPLS,GP_Gen,0.08,6/6,0/18
KVSQSVGYGSRNKNSVA,EASTRES,QQYHRLPLS,GP_Gibbs,0.54,6/6,0/18
MVSQLMLWGLHAKNSIA,EAVTRLN,QQYDRLPLI,En_Gen,1.88,5/6,0/18
NITQIFDNMGDQRSNVA,NGETLFH,QQYDRLPFL,En_Gibbs,0.96,6/6,2/18
KPSQSVLYESEEKNSVA,MASTRER,QSYHRLPLS,Ctrl,1.59,3/6,1/18
KVSQSQLYEERNKNNVA,QASDRES,QQYHRLPLS,GP_Gibbs,0.02,6/6,1/18
KVSQSNLYESRNKNSVA,NASYRES,QQYHRLPLS,GP_Gen,-0.13,6/6,2/18
KSSQSVKYESRNKNSVA,WASTRES,QQYHRLPLS,Ctrl,nd,0/6,0/18
IVSQLMIWGMKLKNSIA,EAETRLN,QQYDRLPLF,En_Gen,nd,0/6,0/18
KIYGYQGMHTRQANSIA,DNTTREN,QQYHRLPLS,En_Gen,0.95,6/6,0/18
KSSISSLYESRNENSVA,EASTREQ,QQYHRLPLS,GP_HC,0.34,6/6,2/18
KTSQSVLFESRNKNSVA,DASTRES,QQFHRLPLS,Rand,0.73,6/6,1/18
KSSDSYLYESRNKNSVA,AASTRES,QQYHRLPLS,GP_HC,-0.26,6/6,4/18
NLVGRAVMQYSGRNAIA,NAHARCT,QQYFRLPLT,En_Gibbs,1.98,3/6,1/18
TLTQVQGMESHNNDSVA,DLSTRGS,QQYHRLPLS,En_HC,1.63,6/6,0/18
HVSEMIFAQSKARNSVA,ENSTREA,QQYDRLPLS,En_HC,2.48,2/6,0/18
KLSQMVDYESRNKNNVA,EASTRMS,QQYHRLPLS,GP_Gibbs,0.32,6/6,1/18
KVDQSVLGQSRNQNAVA,AASTRES,QQYHRLPLS,GP_Gibbs,0.13,6/6,3/18
KISMMYRYEQQNHSSIA,EANTREQ,QSYHRLPLS,En_HC,1.49,6/6,1/18
TLGNQPTEMRDNKHAVA,DDYQRDR,QQYMRLPLS,En_Gibbs,0.66,6/6,0/18
KLSPSWLYESRNKNSVA,EASTRES,QQYHRLPLS,GP_Gen,-0.17,6/6,0/18

The opening 4 entries, copied out:

CDR-L1,CDR-L2,CDR-L3,group,"log10 Kd (nM), mean",detected,control signals
MISQLMNMGTFAINSVA,QASIRNE,QQYDRLPLI,En_Gen,0.44,6/6,1/18
KSSDSVQYESRNKNSVA,WADTRES,QQYHRLPLS,Ctrl,2.15,1/6,0/18
MIDMGEAPNGQQTSSIA,QGHLRAE,QQYYRLPLC,En_Gibbs,0.06,6/6,1/18
RIMYEQFGNTYSVNNVA,QAHVRAY,QMYNRLPLS,En_Gibbs,nd,0/6,0/18

In the paper, a design with two or fewer of six values counts as a poor binder. Values of this round are not directly comparable with the first-round values of the same sequences.